# Experimental data from US9701959B2, “High throughput screen for biologically active polypeptides” (Invenra Inc., priority 2012, dated 2017).
# System: E. coli MG1655
# Test: Minimal Inhibitory Concentration (MIC) in E. coli, Alamar Blue, hit validation
# Assay type: cell-based
# Conditions: MIC at 18 hrs in E. coli; overnight at 35° C., triplicate
# Experimental: Equipment: • Absorption and fluorescence plate reader—Tecan Safire • CO2 Incubator
# Reagents: • Six chemically synthesized peptides—Biosynthesis Inc. • E. coli MG1655 (ATCC) • LB media (Sigma-Aldrich) • Alamar Blue assay kit (Life Tech)
# 3) Start an overnight culture of E. coli MG1655 in 5 mL of LB and grow at 37° C. with shaking at 200 rpm. 4) In the morning dilute overnight culture to OD600=0.00075 in 10 mL LB+1 mL Alamar Blue Stain. 5) Make seven (7), 1:2 serial dilutions of each peptide starting at […] in a final volume of 70 μL of PBS. 6) Add 20 μL of serial dilution of peptides in triplicate to a white small volume 96-well plate. Add 20 μl of PBS alone to the 8th well. 7) Add 120 μL of E. coli/Alamar blue dilution to each of the test wells. 8) Incubate overnight (18 hrs) at 35° C.
smiles,measurement,value
CC[C@H](C)[C@H](NC(=O)CN)C(=O)NCC(=O)N[C@@H](C)C(=O)N[C@H](C(=O)N[C@@H](CC(C)C)C(=O)N[C@@H](CCCCN)C(=O)N[C@H](C(=O)N[C@@H](CC(C)C)C(=O)N[C@H](C(=O)N[C@H](C(=O)NCC(=O)N[C@@H](CC(C)C)C(=O)N1CCC[C@H]1C(=O)N[C@@H](C)C(=O)N[C@@H](CC(C)C)C(=O)N[C@H](C(=O)N[C@@H](CO)C(=O)N[C@@H](Cc1c[nH]c2ccccc12)C(=O)N[C@H](C(=O)N[C@@H](CCCCN)C(=O)N[C@@H](CCCNC(=N)N)C(=O)N[C@@H](CCCCN)C(=O)N[C@@H](CCCNC(=N)N)C(=O)N[C@@H](CCC(N)=O)C(=O)N[C@@H](CCC(N)=O)C(N)=O)[C@@H](C)CC)[C@@H](C)CC)[C@@H](C)O)[C@@H](C)O)C(C)C)C(C)C [Melittin],Ave MIC,13 µM
